# Reference: patent EP4843994A1, “NOVEL PEPTIDE HAVING MUSCLE FORMATION-PROMOTING ACTIVITY, ANTI-OBESITY ACTIVITY AND ANTI-DIABETIC ACTIVITY AND USES THEREOF” (dated 2026)
# Columns and labels:
# C2C12 cells = test: Microscopic analysis of morphology of differentiation-induced myoblasts (myotube formation); conditions: differentiation medium, three days
# Method: C2C12 cells (mouse-derived myoblasts) were cultured in DMEM medium containing 1% P/S and 2% BCS (bovine calf serum). When cell confluency reached approximately 80%, cells were seeded into 6-well culture plates at a concentration of 5 x 10^5 cells/2 ml. Subsequently, when cell confluency reached 100% in a 6-well culture plate, the differentiation medium (1% P/S, 2% horse serum) and peptides (5µM, 50µM) were replaced. After that, the differentiation medium (1% P/S, 2% horse serum) and peptides (5µM, 50µM) were replaced every two days, and images of the cells were taken using an optical microscope (FLEXACAM C1, Leica, Germany) three days after differentiation induction.
# The above experiment aimed to determine whether cell differentiation is promoted when peptides are treated simultaneously with differentiation induction in C2C12 myoblasts. Cell morphology was examined using a microscope, and the thickness of the formed myotubes was measured.
# 3T3-L1 cells [1] = test: Expression of insulin resistance and sensitivity related proteins in adipocytes (Western blot); conditions: 3T3-L1 cells differentiated with MDI cocktail, peptide 5 µM, 50 µM, 48 hours
# Method: 3T3-L1 cells (preadipocytes, American Type Culture Collection) were cultured in DMEM medium containing 2% BCS (Bovine Calf Serum) (Welgene, Korea). To differentiate 3T3-L1 cells into adipocytes, they were seeded into 12-well culture plates at a concentration of 1 x 10^5 cells/well, and when they became confluent (Day=2), the medium was changed once more and cultured for an additional 48 hours. After 48 hours (Day=0), the culture medium was replaced with DMEM medium containing 10% FBS, 1% P/S, 1 µg/ml insulin (Sigma, USA), 0.5 mM isobutylmethylxanthine (IBMX) (Sigma, USA) and 1 µM Dexamethasone (Sigma, USA) and cultured. After 2 days (Day=2), the medium was replaced with DMEM containing 10% FBS, 1% P/S, and 1 µg/ml insulin, and cultured. After 3 days (Day=5), the medium was replaced with one containing only 10% FBS and 1% P/S, and peptides (5 µM, 50 µM) were added and cultured for 48 hours. After culture, lysis buffer was added to lyse the cells, and the protein was obtained by centrifugation at 4°C and 12,000 rpm for 30 minutes. The obtained protein was then quantified using a BCA kit. Subsequently, the protein was electrotransferred onto a membrane after performing SDS-PAGE (sodium dodecyl sulfate-polyacrylamide gel electrophoresis). The membrane to which the protein was attached was blocked by treatment with 5% skim milk, and then the primary antibody was incubated overnight at 4°C. The primary antibodies used are as follows: anti-pIRS (Tyr612) antibody (Invitrogen, USA); anti-GLUT4 antibody (Invitrogen, USA); anti-pIRS (Ser302) antibody (Cell signaling Technology, USA); anti-P70S6K antibody (Cell signaling Technology, USA); anti-β-actin antibody (Santa Cruz, USA). The reaction mixture was washed with PBS-T, then reacted with secondary antibodies (Peroxidase-conjugated AffiniPure Goat Anti-Rabbit IgG (H+L), Jackson immunoResearch, USA; Peroxidase-conjugated AffiniPure Goat Anti-Mouse IgG (H+L), Jackson immunoResearch, USA) at room temperature for 1 hour, washed again with PBS-T, and then visualized by treatment with a Western detection reagent (Elpis Biotech, Daejeon, Korea) using Gel Doc (Bio-Rad, Hercules, CA, USA).
# In the above experiment, differentiation was induced in 3T3-L1 preadipocytes with an MDI cocktail for 5 days, and then the insulin sensitivity-promoting effect was confirmed by measuring the expression levels of insulin sensitivity or resistance proteins upon peptide treatment. As a result of the experiment, peptide treatment in 3T3-L1 cells increased the expression levels of pIRS(Tyr612) and GLUT4, which are factors related to insulin sensitivity, while decreasing the expression levels of pIRS(Ser302) and p70S6K, which are factors related to insulin resistance (FIGS. 14A and 14B).
# 3T3-L1 cells [2] = test: Expression of adipogenesis and lipolysis related proteins in insulin resistance-induced adipocytes (Western blot); conditions: 3T3-L1 adipocytes, 350 µM oleic acid (insulin resistance environment), peptide 5 µM, 50 µM, 48 hours
# Method: 3T3-L1 cells (preadipocytes, American Type Culture Collection) were cultured in DMEM medium containing 2% BCS (Bovine Calf Serum) (Welgene, Korea). To differentiate 3T3-L1 cells into adipocytes, cells were seeded into 12-well culture plates at a concentration of 1 x 10^5 cells/well, and when the cells became confluent (Day=2), the medium was replaced once more and cultured for an additional 48 hours. After 48 hours (Day=0), the culture medium was replaced with DMEM medium containing 10% FBS, 1% P/S, 1 µg/ml insulin (Sigma, USA), 0.5 mM isobutylmethylxanthine (IBMX) (Sigma, USA), and 1 µM Dexamethasone (Sigma, USA), and cultured. After 2 days (Day=2), the medium was replaced with DMEM medium containing 10% FBS, 1% P/S, and 1 µg/ml insulin, and cultured. After 3 days (Day=5), the medium was replaced with one containing only 10% FBS and 1% P/S, and an insulin resistance environment was induced by treating with 350 µM oleic acid (Sigma, St. Louis, MO, USA) for 24 hours. After 24 hours of induction, the DMEM medium (10% FBS, 1% BSA) supplemented with 350 µM oleic acid (Sigma, St. Louis, MO, USA) and peptides (5 µM, 50 µM) were replaced, and the cells were cultured for 48 hours. After culture, lysis buffer was added to lyse the cells, and the proteins were obtained by centrifugation at 12,000 rpm and 4°C for 30 minutes. The obtained proteins were then quantified using a BCA kit. […]
smiles,measurement,setting,value
C[C@@H](O)[C@H](NC(=O)CNC(=O)[C@@H](N)Cc1c[nH]cn1)C(=O)N[C@@H](Cc1ccc(O)cc1)C(=O)O,"myoblast differentiation compared to the control group (differentiation induction, Non)","C2C12 cells; peptide 5 µM, 50 µM",further promoted
same,myotube formation,C2C12 cells; peptide at high concentrations,a large number of long and thick myotubes were formed
same,expression level of GLUT4,3T3-L1 cells [1],increased
same,expression level of p70S6K,3T3-L1 cells [1],decreasing
same,expression level of pIRS(Ser302),3T3-L1 cells [1],decreasing
same,expression level of pIRS(Tyr612),3T3-L1 cells [1],increased
same,expression level of FAS protein,3T3-L1 cells [2],decreased again
same,expression level of PLIN protein,3T3-L1 cells [2],increased again
